Values quoted from earlier work in PMC3813957 (Cancer prevention research (Philadelphia, Pa.), 2013).
“Also recorded” adds a separate entry of the source.

Key:
[1] = system: ER+ tumors with EGFR expression; conditions: gefitinib alone for up to 16 weeks; cited from earlier work
[2] = system: phosphorylation of EGFR, AKT and ERK; conditions: daily dosing, immunohistochemistry; cited from earlier work

SMILES: COc1cc2ncnc(Nc3ccc(F)c(Cl)c3)c2cc1OCCCN1CCOCC1 [gefitinib]
- tumors showing a complete response [1]: Roughly 40%
- levels of phosphorylated EGFR and downstream phosphorylated proteins AKT and ERK [2]: decreased; also recorded: inhibited; also recorded: strongly inhibited
